# Experimental data published in PubChem BioAssay AID1861 (The Scripps Research Institute Molecular Screening Center, 2009).
# Chains of the proteins cited; added tags and fusions are not shown. Lines headed by an entry give the natural chain unless they say otherwise; changes in a name come on top.
# UniProt P48145: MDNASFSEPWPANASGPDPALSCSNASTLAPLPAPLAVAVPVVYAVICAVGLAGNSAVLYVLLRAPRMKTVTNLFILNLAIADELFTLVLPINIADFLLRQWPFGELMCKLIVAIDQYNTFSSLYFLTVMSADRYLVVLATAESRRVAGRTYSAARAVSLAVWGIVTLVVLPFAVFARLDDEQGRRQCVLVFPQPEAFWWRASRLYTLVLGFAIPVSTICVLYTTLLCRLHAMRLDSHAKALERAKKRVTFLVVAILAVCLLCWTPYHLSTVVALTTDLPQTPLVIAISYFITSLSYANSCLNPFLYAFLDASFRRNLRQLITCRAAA
# Values joined by “and” are separate entries in the source; they are usually repeats but may differ in a detail not shown here. Equal entries are not always repeated. The list shows a part of the results, in another mix than the full data. Active and inactive are the calls of the source. No stated cut-off is given here; in the data, active means inhibition above about 16% (passing the limit was not always enough); inactive means the rest.
# Target: Neuropeptides B/W receptor type 1 (Homo sapiens) (UniProt P48145)
# Assay: blockers of human neuropeptide B/W receptor 1 – cell-based, fluorescence, single concentration, primary screen (AID 1861);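 further: cells stimulated with the agonist NPW; 0% = agonist with vehicle and 100% = vehicle without agonist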
# Conditions: GPR7-expressing cells, fluorescence antagonist assay; at 4.4 µM; hits give high values
row,Structure (SMILES),inhibition
1,CC(=O)N1C2C3N(C(C)=O)C1C1N(C(C)=O)C(C(N1C(C)=O)N3C(C)=O)N2C(C)=O,inactive: -1.63%
2,COc1ccc(C2=NCC(CBr)S2)cc1 (stereo not drawn),inactive: -9.51%
3,CC1CCN(C(=O)Oc2c(Cl)cc(Cl)c3cccnc23)CC1,inactive: 6.99%
4,CN(C)C(=O)OCCc1n(C)cc[n+]1C,inactive: -14.3%
5,CC(C)=N/N=C(\N)N[N+](=O)[O-],inactive: 5.16%
6,CCN(/C(=N/P(=O)(N1CCOCC1)N1CCOCC1)N1CCOCC1)c1ccc(OC)cc1,inactive: -0.38%
7,C[N+]1=C2C=CC=CC=C2SC12C([N+](=O)[O-])=CC([N+](=O)[O-])=C[C-]2[N+](=O)[O-] (stereo not drawn),inactive: 0.66%
8,Nc1ccc([As](=O)(O)c2ccc(N)cc2)cc1,inactive: 1.43%
9,O=C(Nc1cc([As](=O)(O)O)ccc1O)c1ccccc1,inactive: -3.52%
10,O=C(O)CNc1ccc([As](=O)(O)O)cc1,inactive: -12.9%
11,O=[N+]([O-])c1cccc(NC2=NCC(CBr)S2)c1 (stereo not drawn),inactive: -2.36%
12,O=[N+]([O-])c1ncn(CCn2ncnc2[N+](=O)[O-])n1,inactive: 4.13%
13,CC(C)(C)C(=O)NC(Sc1ccncn1)C(Cl)(Cl)Cl (stereo not drawn),inactive: -7.67%
14,Cc1ccc(NP(=O)(Oc2ccccc2F)Oc2ccccc2F)nc1,inactive: -3.94%
15,CCOP(=O)(Nc1ccccc1)OCC,inactive: -11% and inactive: -11.1%
16,Cc1cc(SC(NC(=O)c2ccc(F)cc2)C(Cl)(Cl)Cl)ncn1 (stereo not drawn),inactive: 1.76%
17,O=P(Nc1nc2ccc(Cl)cc2s1)(c1ccccc1)c1ccccc1,inactive: -6.92%

row,Structure (SMILES),inhibition
1,O=C(O)c1ccccc1[As](=O)(O)O,inactive: -8.4%
2,CC(=O)Nc1ccc([As](=O)(O)O)cc1,inactive: -1.6%
3,Nc1cccc2ccc([As](=O)(O)O)cc12,inactive: -0.07%
4,CCN(N=Nc1nonc1N)c1nonc1N,inactive: -10.6%
5,O=[N+]([O-])c1cc([N+](=O)[O-])c(CCN2CCOCC2)c([N+](=O)[O-])c1,inactive: -0.13%
6,Clc1ccc(Cl)c(NC2=NCC(CBr)S2)c1 (stereo not drawn),inactive: -12.3%
7,CN1CCCC(OC(=O)C(c2ccccc2)c2ccccc2)C1 (stereo not drawn),inactive: -15.4%
8,Cc1ccc(OP(=O)(Nc2nccs2)Oc2ccc(C)cc2)cc1,inactive: -14.5%
9,COc1ccccc1OP(=O)(Nc1ccc(C)cn1)Oc1ccccc1OC,active: 21.7%
10,Cc1ccc(N/C(=N/P(=O)(N2CCOCC2)N2CCOCC2)N2CCOCC2)cc1,inactive: 5.85%
11,NC(=O)c1cc([N+](=O)[O-])cc([N+](=O)[O-])c1N,inactive: -1.46%
12,Cc1c2non([O-])c-2c(C)[n+](=O)[n+]1[O-],inactive: -6.32%
13,O=C(NC(Sc1ccncn1)C(Cl)(Cl)Cl)c1ccccc1 (stereo not drawn),inactive: -0.67%
14,Oc1ccccc1CNc1ccccn1,inactive: 1.47%
15,CC(C)CC(=O)NC(Sc1ccc(Cl)cc1)C(Cl)(Cl)Cl (stereo not drawn),inactive: -19.4%
16,Nc1cc(N)c2nonc2c1[N+](=O)[O-],inactive: -7.33%
